# AlphaSeq binding of Ab-14 light chain variants to a spike HR2 peptide

The measurements come from Li et al. 2023 (doi:10.1038/s41467-023-39022-2) through the FLAb antibody collection.

The target is the same throughout: PDVDLGDISGINAS, from the HR2 region of SARS-CoV-2 spike.

Parent: Ab-14, a human scFv built as VH, three GGGGS repeats, VL. Only the CDRs of the light chain vary.
VH: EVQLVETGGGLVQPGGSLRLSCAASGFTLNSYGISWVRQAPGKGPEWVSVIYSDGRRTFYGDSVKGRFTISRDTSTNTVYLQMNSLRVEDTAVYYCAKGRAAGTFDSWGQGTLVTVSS
VL: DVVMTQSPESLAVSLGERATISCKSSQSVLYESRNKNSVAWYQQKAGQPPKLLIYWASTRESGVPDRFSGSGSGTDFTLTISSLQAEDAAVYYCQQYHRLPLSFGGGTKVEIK

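The starting antibody came from a phage panning campaign against this peptide. This is the validation round: designs drawn from the data on random variants, tested in the same kind of assay. Their group label is 14L_GP_Gibbs (GP: Gaussian process model; Gibbs: Gibbs sampling; a sequence that several methods proposed may carry one label only). In AlphaSeq, yeast of one mating type display the scFv and yeast of the other type display the target. Pairs that bind mate more often; barcode pairs of the diploids are counted by sequencing. A regression on co-assayed BCL2-family reference pairs converts the normalised counts of each replicate to an apparent Kd. There are six technical replicates.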

The parent's light chain CDRs are KSSQSVLYESRNKNSVA, WASTRES, QQYHRLPLS; each variant's own CDRs replace them letter for letter.
The read-out is the apparent dissociation constant on a log10 scale (nM): the lower, the stronger.
A mean of the replicates is given; it leaves out those without a signal.
"n.d." marks a missing value. The strain was present, yet no cells mated with the target were sequenced in that replicate, which points to weak or no binding.
A sequence measured in both rounds can read differently, since the two assays cover different ranges.

| CDR-L1 | CDR-L2 | CDR-L3 | replicates, log10 nM | mean, log10 nM | signal with controls |
|---|---|---|---|---|---|
| KLQMRMLYESRWKNSVA | NASLRES | QQYHRLPLS | 0.51 / 0.56 / 0.60 / 0.45 / 0.57 / 0.53 | 0.54 | 0/18 |
| KMAQGWPYESRNKNSVA | NASYREM | QQYHRLPLS | 0.90 / 0.80 / 0.46 / 0.42 / 0.73 / 0.97 | 0.72 | 2/18 (2.92) |
| KLSQSVLGMWRNKNSVA | NASTRES | QQYHRLPLS | 0.12 / 0.09 / 0.01 / 0.04 / 0.02 / 0.01 | 0.05 | 0/18 |
| KLMQEMLYESRMDNSVA | NASQREE | QQYHRLPLS | 0.36 / 0.70 / 0.39 / 0.88 / 0.66 / 0.96 | 0.66 | 1/18 (2.67) |
| KVDQWEPYGSRNKNSVA | SASTRCS | QQYHRLPLS | 0.57 / 0.19 / 0.20 / 0.19 / 0.60 / 0.50 | 0.37 | 0/18 |
| KLEMLVDYKDRNLNSVA | NASTRES | QQYHRLPLS | 0.33 / -0.18 / -0.07 / 0.20 / -0.07 / -0.24 | -0.01 | 1/18 (3.29) |
| KVDQSDLYESRNKNSVA | QGSTRES | QQYHRLPLH | 0.29 / 0.09 / -0.07 / 0.03 / -0.16 / 0.41 | 0.10 | 1/18 (1.69) |
| KWSQSVPMGDRNKNSVA | MAHKRES | QQYHRLPLS | 3.46 / 1.27 / 1.24 / 1.16 / 2.12 / 1.17 | 1.74 | 2/18 (1.80) |
| KVSGSVLLWSRTANQVA | EASTRES | QQYHRLPLS | 0.88 / 0.44 / 0.70 / 0.55 / 0.64 / 1.10 | 0.72 | 4/18 (2.37) |
| KLQFSCLYESRNKNSVA | SASYRLS | QQYHRLPLS | 0.95 / 0.86 / 0.72 / 1.11 / 1.18 / 1.34 | 1.03 | 1/18 (2.73) |
| KLSQSWMGEERNKNSVA | QASTREQ | QQYHRLPLS | 0.22 / 0.02 / 0.09 / -0.22 / 0.03 / 0.14 | 0.05 | 0/18 |
| KVSQSVLQLSRNQNSVA | EASTREA | QQYHRLPLS | 0.03 / -0.09 / -0.06 / -0.12 / -0.17 / -0.08 | -0.08 | 1/18 (2.45) |
| KLSQSVLYQMEMKNSVA | QAVTRMS | QQYHRLPLS | 0.37 / 0.53 / 0.27 / 0.08 / 0.06 / 0.31 | 0.27 | 1/18 (1.96) |
| KSSQEVDLESRNDNSVA | NASCRED | QQYHRLPLS | 0.34 / 0.22 / 0.27 / 0.14 / 0.00 / 0.28 | 0.21 | 0/18 |
| KVEGSHLYESRNGNSVA | NASTREH | QQYHRLPLS | 0.55 / 0.41 / 0.42 / 0.15 / 0.10 / 0.26 | 0.31 | 0/18 |
| KLSGSDLYEWRNCNNVA | NASQREV | QQYHRLPLS | 0.22 / 0.12 / -0.02 / 0.01 / 0.35 / 0.26 | 0.16 | 2/18 (2.27) |
| KAQQSQLYESRNQNSVA | SASQRLS | QQYHRLPLS | 0.05 / -0.23 / -0.14 / -0.12 / 0.00 / -0.21 | -0.11 | 0/18 |
| KLRQSVEYGSRNKNSVA | SASTRES | QQYHRLPLS | 0.56 / 0.52 / 0.24 / 0.33 / 0.24 / 0.17 | 0.34 | 0/18 |
| KLSFGVDYESRNKNSVA | GASTRES | QAYHRLPLS | 0.45 / 0.41 / 0.33 / 0.33 / 0.44 / 0.51 | 0.41 | 3/18 (3.29) |
| KLMGSAEYESRNKNSVA | EASTRES | QQYHRLPLS | -0.45 / -0.05 / -0.47 / -0.33 / -0.38 / -0.06 | -0.29 | 1/18 (2.73) |
| KLQQSVGYESRLANNVA | NASTRLE | QQYHRLPLS | 0.43 / 0.24 / 0.27 / 0.04 / 0.08 / 0.35 | 0.24 | 1/18 (2.03) |
| KLSQQNPYESRMMNSVA | NASQRES | QQYHRLPLS | 0.31 / 0.13 / -0.05 / 0.21 / 0.14 / 0.15 | 0.15 | 1/18 (3.88) |
| KVSGSELEESRNKNSVA | WASKREE | QQYHRLPLS | 1.69 / n.d. / 2.41 / n.d. / 3.13 / 1.88 | 2.28 | 0/18 |
| HAYQSGLYESRNQNSVA | SASMRSS | QQYHRLPLS | 0.34 / 0.06 / -0.04 / -0.21 / 0.02 / 0.19 | 0.06 | 0/18 |
| KCPQSVWQEERQKNSVA | NASQREQ | QQYHRLPLS | 1.10 / 0.74 / 1.43 / 0.51 / 0.50 / 1.19 | 0.91 | 0/18 |
| KVEMSQLYESRNKNSVA | NASLRMS | QQYHRLPLS | 0.53 / 0.58 / 0.31 / 0.36 / 0.81 / 0.71 | 0.55 | 0/18 |
| KLYQSGLYESRNKNSVA | SASTRES | QQYFRLPLS | 0.17 / 0.21 / -0.05 / 0.19 / 0.05 / 0.11 | 0.11 | 3/18 (2.52) |
| KISQLVLYESRNKNSVA | NANTRES | QQYHRLPLS | 0.32 / 0.28 / 0.14 / -0.08 / 0.17 / 0.18 | 0.17 | 0/18 |
| LVSQQELYEDRNKNSVA | HASQRLL | QQYHRLPLS | 0.14 / -0.24 / -0.41 / -0.10 / -0.15 / 0.19 | -0.10 | 1/18 (3.08) |
| KAEGSWLYESRNKNSVA | NASERES | QQYHRLPLS | -0.40 / -0.65 / -0.57 / -0.69 / -0.66 / -0.35 | -0.55 | 3/18 (2.76) |
| KLSGSVMMLQRNDNSVA | DASTRES | QQYHRLPLS | 1.48 / 0.69 / 0.41 / 0.48 / 1.16 / 1.42 | 0.94 | 1/18 (3.06) |
| KISGSYLGLSRNWNAVA | NASTREQ | QQYHRLPLS | 0.14 / 0.06 / -0.13 / -0.12 / -0.08 / 0.08 | -0.01 | 2/18 (3.26) |
| KLQQSGLYGSRNKNSVA | EASTRLV | QAYHRLPLS | 0.39 / 0.67 / 0.25 / 0.31 / 0.45 / 0.42 | 0.42 | 0/18 |
| KLSQSKGGESRNPNSVA | NASTRER | QQYHRLPLS | 0.19 / 0.33 / -0.18 / -0.08 / 0.09 / 0.10 | 0.08 | 1/18 (2.63) |
| KMSQSFLMESRNGNSVA | NASKRES | QQYHRLPLS | 0.42 / 0.02 / -0.76 / -0.17 / -0.49 / -0.22 | -0.20 | 0/18 |
| KSSGSVLQESRNQNSVA | EASTREV | QQYHRLPLS | 0.22 / 0.02 / 0.10 / 0.03 / -0.04 / 0.26 | 0.10 | 4/18 (2.97) |
| KLSPSWLGEMRNDNSVA | NASTRRS | QQYHRLPLS | -0.13 / -0.07 / -0.15 / 0.01 / -0.21 / 0.03 | -0.09 | 1/18 (3.27) |
| KLSQSFLYESRNWNSVA | NASKRES | QQYHRLPLS | 0.05 / -0.01 / -0.18 / -0.25 / -0.27 / 0.04 | -0.11 | 2/18 (3.21) |
| KVSQSQLYESRNSNSVA | DASNRES | QQYHRLPLS | 0.52 / 0.30 / 0.40 / 0.24 / 0.31 / 0.57 | 0.39 | 1/18 (3.26) |
| ALSWSDGGESRNPNSVA | HASTRES | QQYHRLPLS | -0.04 / -0.08 / -0.23 / -0.18 / -0.29 / 0.07 | -0.13 | 0/18 |
| KMSQSVDGLDRNKNSVA | QASTREM | QQYHRLPLS | 0.13 / -0.24 / -0.21 / -0.05 / -0.12 / -0.10 | -0.10 | 2/18 (3.18) |

As a blank, each scFv also met three strains without target: over all light chain designs, 4% of these pairings were detected, typically at 2.64 and seldom below 1.59. Also given: how often the same scFv was detected with the empty control strains, with their mean in brackets.
The parent sequence was in this pool as ten entries: three were never detected, three once, and four in most replicates, with averages from 0.34 to 2.37.
In the paper, a design with two or fewer of six values counts as a poor binder.